This excerpt belongs to a sample that is enriched for hits.
GIV-Gai inh: inhibitors of GIV peptide binding to Galpha-i3, primary screen, biochemical, fluorescence polarization, FITC-GIV GBA peptide, rat Galphai3; 90 min; stronger effect = lower value; scaled: aluminum fluoride 0%, vehicle 100%; percent of control (FP), % (test concentration not listed); 0.42% of 210,000 active; AID 1224905, 2016;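 active = replicate mean at 85% of control or lower, very high polarization wells dropped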;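 also: wells of about 15 µL received 100 nL stock; the first replicate is given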
GIV Gai FP conf: confirmation of inhibitors of GIV binding to rat Galpha-i3 | shares compounds with GIV-Gai inh | FITC-GIV peptide binding to Galphai3, fluorescence polarization; hits give low values | hit rate 38% among 580 | AID 1259350 | fluorescence polarization, mP at 100 µM;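 active = inhibition score of 15 or more, meaning 100 minus mean polarization as percent of control over three replicates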;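 also: lower mP means peptide displaced from Galphai3 so more inhibition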
GIV Gai AS conf: GIV-Galpha-i3 inhibition, AlphaScreen confirmation; shares compounds with GIV-Gai inh; AlphaScreen Galphai3-GIV binding, purified proteins, 90 min; hits give low values; AlphaScreen counts at 100 µM; hit rate 39% among 580;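 active = inhibition score at or above a set limit, where the score is 100 minus the three-replicate mean percent of control signal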
An asterisk follows results filed as active.

SMILES | GIV-Gai inh | others
CCN(CC)C(=O)CSc1nnc2c3ccccc3nc(-c3ccc(F)cc3)n12 | 102
O=C(Nc1nc2c(s1)CCCC2)C1CCCCC1 | 99
CC(=O)Nc1ccc2c3c(cc(=O)n2C)-c2ccccc2C(=O)c13 | 85* | GIV Gai FP conf=69;GIV Gai AS conf=46281
Cn1c(=O)cc2c3c(c(Nc4cccc(Cl)c4)ccc31)C(=O)c1ccccc1-2 | 105
Cn1c(=O)cc2c3c(c(Nc4ccccc4)ccc31)C(=O)c1ccccc1-2 | 101
Cc1nc2nc3c(c(Nc4ccc(Cl)cc4)n2n1)CCCC3 | 100
CCn1c(=O)cc(SCC(=O)Nc2ccc(S(N)(=O)=O)cc2)c2ccccc21 | 105
Cc1ccc(C(C)C)c(OCC(=O)Nc2ccc3c(c2)NC(=O)CO3)c1 | 101
COCCOC(=O)C1=C(C)NC(C)=C(C(=O)OCCOC)C1c1ccc(-c2ccc(Cl)cc2Cl)o1 | 109
O=C1N(CN2CCCCC2)c2ccccc2C12OCCCCO2 | 99

A portion of the results above, for reference:
SMILES | GIV-Gai inh | others
CCN(CC)C(=O)CSc1nnc2c3ccccc3nc(-c3ccc(F)cc3)n12 | 102
O=C(Nc1nc2c(s1)CCCC2)C1CCCCC1 | 99
